The record followed here is PMC6290340, “Discovery of Antiamebic Compounds That Inhibit Cysteine Synthase From the Enteric Parasitic Protist Entamoeba histolytica by Screening of Microbial Secondary Metabolites” (Frontiers in Cellular and Infection Microbiology, 2018).

In the assay the test system is E. histolytica trophozoites. Kind of assay: In vitro antiamebic activity (WST-1), L-cysteine-deprived or L-cysteine-supplemented BI-S-33 medium. The class given is cell-based, Entamoeba histolytica. The following applies: ED50 Cys(+)/ED50 Cys(–), cysteine dependence index. As to the method: Trophozoites were harvested in a logarithmic growth phase 3 or 4 days after inoculation of 1/30–1/12 volume of the seed culture. After the cultures were chilled on ice for 5 min, trophozoites were collected by centrifugation at 500 × g for 10 min at 4°C. The trophozoites were resuspended in BI-S-33 medium containing 1% (v/v) penicillin/streptomycin (Life Technologies, Grand Islands, NY, U.S.A.), with a final concentration of 5 × 10^4 cells/ml. […] The plates were incubated under anaerobic conditions with Anaeropak for 48 hrs. After incubation, the medium was removed and 90 μl of pre-warmed Opti-MEM I (Life Technologies) and 10 μl of WST-1 solution (Dojindo, Kumamoto, Japan) were added to each well. Optical absorbance at 450 nm was measured on a photospectrometer (SH-9000Lab, Corona Electric, Ibaraki, Japan). Metronidazole (Sigma-Aldrich, MO, USA) was used as positive control. Antiamebic assays were done in triplicate. […] The cysteine dependence of the antiamebic activities was calculated as ED 50Cys(+) /ED 50Cys(-) and expressed as “cysteine dependence index.”
Approximately 2 μl of the compound solution (1 mg/ml, in DMSO) of the Kitasato Natural Products Library or 10 μl of EtOH extracts of microbial culture broth extracts was added to each well of E. histolytica trophozoite-seeded 96-well microtiter plates (final concentrations, 10 μg/ml). […]
(In general: Formazan colour is commonly taken as a measure of viable cells.)

As to `C/C=C/C/C=C/CCC(=O)[C@H]1O[C@H]1C(N)=O` [Cerulenin, reference compound], the “Anti-amebic activity Selectivity Cys(+)/Cys(–)” value amounted to 7.
